Data published in PubChem BioAssay AID1478 (National Center for Advancing Translational Sciences (NCATS), 2009).
The list shows a part of the results, in another mix than the full data. Some tests of the compounds listed are not included; inactive here does not mean inactive elsewhere. Active and inactive are the calls of the source. Calls come from the whole dose curve; as a rule, active = well fitted inhibition curve with a large enough effect; inconclusive = small, poorly fitted or top-dose-only effect; inactive = flat fitted curve, though single readings scatter.
Note: nearly all actives have a fitted effect of over 40% in size.

Sequences of proteins named here, by UniProt entry; tags and fusion partners are left off. Residues count along the entry.
UniProt P25779, 123-467 limits assumed: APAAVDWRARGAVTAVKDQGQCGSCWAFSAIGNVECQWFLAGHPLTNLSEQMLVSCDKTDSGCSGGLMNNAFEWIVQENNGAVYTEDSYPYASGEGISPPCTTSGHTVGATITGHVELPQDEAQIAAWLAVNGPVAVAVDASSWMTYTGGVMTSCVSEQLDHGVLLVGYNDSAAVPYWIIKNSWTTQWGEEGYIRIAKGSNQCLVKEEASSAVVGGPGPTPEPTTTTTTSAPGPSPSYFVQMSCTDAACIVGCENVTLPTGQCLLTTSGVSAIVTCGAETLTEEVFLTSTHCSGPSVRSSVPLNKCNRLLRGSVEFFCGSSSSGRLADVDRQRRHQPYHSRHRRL

The molecules below were run against Cruzipain (Trypanosoma cruzi) (UniProt P25779) (assay: qHTS Assay for Promiscuous and Specific Inhibitors of Cruzain (with detergent)). Conditions: purified cruzain, Z-FR-AMC fluorescence, 0.01% Triton.
Protocol: Cruzain (3.4.22.51) is a cysteine protease from the tropical parasite Trypanosoma cruzi. Dual qHTS experiment was performed against the NCGC compound collection in order to 1) identify novel inhibitors of the enzyme and 2) profile the compound collection for promiscuous inhibitors operating via colloidal aggregation (by performing detergent-free and detergent-containing comparison screens). Cruzain was assayed by the use of fluorogenic coumarin-based substrate Z-FR-AMC: proteolytic cleavage releases AMC, whose fluorescence is measured at 360 nm excitation and 450 nm emission. Purified cruzain was supplied by the labs of Prof. James McKerrow and Brian Shoichet, UC San Francisco.
This assay had 0.01% Triton X-100 concentration. See also releated assay "qHTS Assay for Promiscuous and Specific Inhibitors of Cruzain (without detergent)" with 0.00005% Triton X-100.
See following references for additional details:
Assay Provider: Shoichet, Brian; University of California, San Fancisco
Screening Center PI: Austin, C.P.
Screening Center: NIH Chemical Genomics Center [NCGC]
Buffer: 100 mM Sodium Acetate, pH 5.5, 5 mM DTT, Triton X-100 concentration: 0.01%.
Buffer in columns 3 and 4 as negative control (no enzyme).
Substrate solution: 2 uM final concentration of Z-FR-AMC (catalog number I-1160, Bachem) dispensed throughout the plate.
Enzyme: 1.5 nM Cruzain final concentration in columns 1, 2, 5-48. Column 1 is neutral (100% activity). Column 2 contained titration of covalent inhibitor K11777, starting concentration 1 mM, then 1:2 dilution in duplicate).
Three uL of enzyme or buffer were dispensed to 1536-well Greiner black solid bottom plates. Compounds and controls (23 nL) were transferred via Kalypsys PinTool. The plates were incubated for 15 min at room temperature, and then 1 uL of substrate solution was added to start the reaction. The plates were immediately transferred to and read 4 times every 30 seconds for 2 min on ViewLux High-throughput CCD imager (Perkin-Elmer) using 360 nm excitation and 450 nm emission fluorescence protocol. The fluorescence intensity difference between the third and the first time points (time lapse of 60 seconds) was used to compute reaction progress.
In the case of `CCOc1cccc(C(=O)NCC2(N(C)C)CCCCC2)c1`, the max response, negative = inhibition is reported as inactive: -0.583%. With `CCN1CCCC(OC(=O)C2(O)c3ccccc3C=Cc3ccccc32)C1` (centres undefined) the max response, negative = inhibition was inactive: 0.79%. With `CN(C)C1CCCC1OC(=O)C(O)(c1ccccc1)c1ccccc1` (centres undefined) the max response, negative = inhibition was inactive: 2.1%. `CN(C)C1(CNC(=O)c2ccccc2[N+](=O)[O-])CCCCC1` was tested, and the max response, negative = inhibition was inactive: -0.937%. With `CCCCOc1ccccc1C(=O)NCC1(N(C)C)CCCCC1` the max response, negative = inhibition was inactive: -1.05%. `CN(C)C1(CNC(=O)c2cccc(Cl)c2)CCCCC1` was tested, and the max response, negative = inhibition was inactive: -1.76%. `CC(C)N1C(=O)CC2(CCN(CCOC(=O)C(O)(c3ccccc3)c3ccccc3)CC2)C1=O` was tested, and the max response, negative = inhibition was inactive: 0.359%. For `CN(C)C1(CNC(=O)c2ccccc2F)CCCCC1`, the max response, negative = inhibition was inactive: 0.12%. With `COc1cc(C(=O)NCC2(N(C)C)CCCCC2)cc(OC)c1OC` the max response, negative = inhibition was inactive: -0.462%. For `Cc1cccc(C(=O)NCC2(N(C)C)CCCCC2)c1`, the max response, negative = inhibition was inactive: -1.52%. For `CC(C)Oc1ccc(C(=O)NCC2(N(C)C)CCCCC2)cc1`, the max response, negative = inhibition was inactive: -0.346%. `CN(C)c1cccc(C(=O)NCC2(N(C)C)CCCCC2)c1` was tested, and the max response, negative = inhibition was inactive: 9.79%. In the case of `COc1cccc(C(=O)NCC2(N3CCOCC3)CCCCC2)c1`, the max response, negative = inhibition is reported as inactive: 2.23%. For `CN1CCC[C@H](OC(=O)[C@](O)(c2ccccc2)C2CCCC2)C1`, the max response, negative = inhibition was inactive: 0.0861%. In the case of `CN1CC[C@H](OC(=O)[C@](O)(c2ccccc2)C2CCCC2)C1`, the max response, negative = inhibition is reported as inactive: -4.33%. For `O=C(OC1CN2CCC1CC2)C(CO)(c1ccccc1)c1ccccc1` (centres undefined), the max response, negative = inhibition was inactive: 9.54%. For `CC(C)COc1ccc(C(=O)NCC2(N(C)C)CCCCC2)cc1`, the max response, negative = inhibition was inactive: -3.49%. `C=C(C)C#C[C@@](O)(C(=O)OC1CCN(C)CC1)c1ccccc1` was tested, and the max response, negative = inhibition was inactive: 0.684%. With `COc1ccc(C(=O)NCC2(N(C)C)CCCCC2)cc1Cl` the max response, negative = inhibition was inactive: -1.13%.
